Patent publication US12655139B2, “Isoxazolidines as RIPK1 inhibitors and use thereof” (SANOFI, priority 2020, dated 2026)

By UniProt entry, the sequences of proteins in these tests, tags left out. Residues count along the entry.
UniProt Q13546, 1-375 limits assumed: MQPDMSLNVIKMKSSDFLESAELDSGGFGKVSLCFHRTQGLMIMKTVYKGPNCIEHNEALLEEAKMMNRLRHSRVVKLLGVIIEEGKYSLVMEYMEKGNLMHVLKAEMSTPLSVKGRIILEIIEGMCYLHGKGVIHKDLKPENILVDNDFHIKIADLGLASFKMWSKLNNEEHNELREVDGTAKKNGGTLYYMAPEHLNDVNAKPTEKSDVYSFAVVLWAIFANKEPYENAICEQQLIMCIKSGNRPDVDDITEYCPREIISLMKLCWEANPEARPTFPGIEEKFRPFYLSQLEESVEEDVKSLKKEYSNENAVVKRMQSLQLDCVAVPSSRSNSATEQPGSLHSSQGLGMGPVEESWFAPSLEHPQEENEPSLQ

Columns and labels:
[1] = test system: U937 cells; assay: Cellular assay in U937 cells on cell death (necroptosis), TNFα/zVAD.fmk; conditions: for IC50: read-out: U937 IC50, Table 2
[2] = molecular target: hRIPK1 (aa 1-375) fusion protein (Homo sapiens, UniProt Q13546); assay: ADP-Glo kinase assay, RIPK1 autophosphorylation; type: biochemical; conditions: for IC50: read-out: ADP-Glo IC50, Table 1

Row | SMILES | IC50 [1] | IC50 [2] | IC50 ([1]; tested form: TFA) | IC50 ([2]; tested form: TFA) | activity of S form compared with R form in U937 assay ([1]; example pairs 4/16 and 69/70) | activity of S form compared with R form in ADP-Glo assay ([2]; example pairs 4/16 and 69/70)
1 | N#Cc1cncc([C@@H]2CCON2C(=O)C2CCN(c3nccc(Cl)n3)CC2)c1 | 0.0197 µM | 0.0197 µM |  |  |  | 
2 | N#Cc1cncc([C@@H]2CCON2C(=O)C2CCN(c3ncnc(C(=O)O)c3F)CC2)c1 |  |  | 0.359 µM | 0.935 µM |  | 
3 | NC(=O)c1ccnc(N2CCC(C(=O)N3OCC[C@H]3c3cncc(F)c3)CC2)n1 | 0.00611 µM | 0.00676 µM |  |  | significantly more active | significantly more active
4 | N#Cc1ccnc(N2CCC(C(=O)N3OCCC3c3cncc(F)c3)CC2)n1 (racemic) | 0.0449 µM | 0.043 µM |  |  |  | 
5 | CN1CC(CNC(=O)c2ccnc(N3CCC(C(=O)N4OCC[C@H]4c4cncc(C#N)c4)CC3)n2)C1 | 1.47 µM | 0.331 µM |  |  |  | 
6 | N#Cc1cncc(C2CCON2C(=O)C2CCN(c3nccc(C(N)=O)n3)CC2F)c1 (stereo not drawn) | 0.185 µM | 0.0102 µM |  |  |  | 
7 | Cc1ccc([C@@H]2CCON2C(=O)C2CCN(c3nccc(C(N)=O)n3)CC2)cn1 | 0.0376 µM |  |  |  |  | 

Where two headings read alike, the source gives them in different places.
